# In patent US20250025411A1, “READILY SOLUBLE AND THERMOSTABLE GLUCAGON FORMULATIONS AND DELIVERY FOR MINI-DOSING AND CLOSED -LOOP PROPHYLACTIC TREATMENT OF HYPOGLYCEMIA” (Massachusetts Institute of Technology, priority 2023, published 2025):
# Assay: High throughput screening of water-soluble solid excipients for glucagon dissolution
# Type: physicochemical
# Details: pH 7.4
substance,measurement,value
Sodium Thiosulfate,Glucagon concentration Avg.,0.60 mg/mL
